Source: US20240383924A1, “BENZOPYRIMIDINE COMPOUNDS AND USE THEREOF” (priority 2022, published 2024)

Assays:
[1] = Pharmacokinetic study in vivo in mice; parameters: species or system mouse; conditions: male C57BL/6J mice; for Cmax: read-out: peak concentration Cmax
[2] = system: phospho-ERK in GP2D cells; experiment: Inhibition of phospho-ERK in GP2D cells (Odyssey in-cell imaging); conditions: read-out: Inhibitory effects on intracellular phospho-ERK IC50, 1 hour compound, EGF stimulation
Protocol: Assay example 3. Inhibitory effect of compounds on phospho-ERK in GP2D cells
In this assay, the inhibitory effect of the assayed compounds on the phosphorylation of ERK protein downstream of the KRAS […] signaling pathway in human colon cancer GP2D cells was analyzed.
2. Reagents, consumables and instruments
3.Assay process 1. Cell culture
1) GP2D cells were cultured in a cell culture 75 flask at 37° C., 5% CO2, and the medium was DMEM medium (added with 10% FBS and 1% P/S).
2) After cultivation for 2 days, the medium was removed and the sterile PBS buffer was used to wash once.
3) 3 mL of trypsin was added and the cells were digested in a 37° C. incubator for 2 to 3 minutes until cells fell off.
4) 9 mL of fresh culture medium was added to neutralize the digestion; the cells were aspirated into a centrifuge tube and centrifuged at 1000 rpm at room temperature for 5 minutes.
5) The supernatant was removed, and 3 mL of fresh culture medium was added to resuspend the cells; the cells were counted by a cell counter.
1) 7000 cells per well were plated in a 384-cell culture plate with 40 μL of culture medium, and cultured overnight in a 37° C. and 5% CO2 incubator.
2) The Echo655 instrument was used to add 40 nL of serially diluted compounds (the initial concentration of the compound was 1000 nM, and the compound was serially diluted 3-fold. […]

[3] = system: KRAS^G12D mutated AsPC-1 cells; experiment: Anti-cell proliferation in tumor cell line AsPC-1 (CellTiter-Glo 3D); conditions: read-out: Anti-proliferation Activity against KRAS^G12D Mutated AsPC-1 Cells IC50; AsPC-1, 120 hours, 3D culture
From the text: Assay example 2. Anti-cell proliferation effects of compounds in tumor cell line AsPC-1 1. Research purpose
In this assay, the inhibitory effects of compounds on cell proliferation were studied by detecting the effects of compounds on the in vitro cell activity in the tumor cell line AsPC-1.
Ultra Low Cluster-96 well plate (Corning-7007)
Greiner CELLSTAR 96-well plate (#655090)
Promega CellTiter-Glo 3D Luminescence Cell Viability Detection Kit (Promega-G9683)
2104-10 En Vision Plate Reader, PerkinElmer
RPMI 1640, DMEM, PBS (phosphate buffered solution), FBS (fetal bovine serum), Antibiotic-antimycotic, L-glutamine, DMSO (dimethyl sulfoxide)
3. Assay methods and steps Cell culture
The tumor cell line was cultured in a 37° C., 5% CO2 incubator according to the culture conditions indicated in the culture method. […]
Cells were stained with trypan blue and viable cells were counted. […]
CellTiter-Glo luminescence assay for cell viability detection (day 5)
The following steps were performed according to the instructions of the Promega CellTiter-Glo 3D Luminescence Cell Viability Dectection Kit (Promega #G9683). […]
The solution in the ULA culture plate was then transferred to a black bottom culture plate (#655090) and left at room temperature for 25 minutes to stabilize the luminescence signal.
Luminescence signals were detected with a 2104 EnVision plate reader. […]

[4] = intravenous administration, dose 1.74-1.94 mg/kg
[5] = oral administration, dose 28.2-51.0 mg/kg

Row | Structure (SMILES) | apparent volume of distribution Vdss [1, 4] | area under plasma concentration-time curve AUC0-last [1, 4] | clearance rate CL [1, 4] | half-life T1/2 [1, 4] | area under plasma concentration-time curve AUC0-last [1, 5] | bioavailability F [1, 5] | peak time Tmax [1, 5] | Cmax [1, 5] | IC50 [2] | IC50 [3]
1 | C#Cc1c(F)ccc2cc(N)cc(-c3c(F)cc4c(N5CC6C=CC(C5)N6)nc(OCC56CCCN5CC(=C)C6)nc4c3F)c12 (single isomer, unassigned) | 94.2 L/kg | 0.405 µM·h | 106 mL/min/kg | 20.3 h | 3.146 µM·h | 31.0% | 0.25 h | 1960 nM | 120 pM | 
2 | C#Cc1c(F)ccc2cc(N)cc(-c3c(F)cc4c(N5CC6C=CC(C5)N6)nc(OCC56CCCN5CC(=CF)C6)nc4c3F)c12 (single isomer, unassigned) | 51.4 L/kg | 0.488 µM·h | 95.7 mL/min/kg | 10.7 h | 2.409 µM·h | 19.1% | 0.25 h | 1380 nM | 69 pM | 6500 pM
